Legend:
OVCAR3 (ovarian cancer) = assay: In vitro cytotoxicity assay with anti-Notch ADCs (MTS); type: cell-based
Description: (§1) The effects of anti-Notch ADCs were assessed on 1) cell lines endogenously expressing Notch protein: HCC2429 (lung cancer), OVCAR3 (ovarian cancer) and MDA-MB-468 (breast cancer), 2) cell lines engineered to over-express Notch protein: MDA-MB-468/hNotch and U2OS/hNotch, and 3) a negative control cell line (SW900) using an MTS cellular viability indicator (Promega, Madison, Wis.). These cell lines were cultured with increasing concentrations of anti-Notch ADCs comprising humanized anti-Notch antibodies, hu28 and hu75, and rat-human chimeric anti-Notch antibodies, ch28 and ch75, conjugated to various linker-payload combinations of the present invention. As a specificity control for the anti-Notch-ADCs, non-targeted control-ADCs (huNeg8.8-ADCs or ch2H6-ADCs) were also tested on the same cell lines. After four days, viability of each culture was assessed. IC50 values were calculated by logistic non-linear regression and presented as ng Ab/mL. The drug antibody ratio (DAR) is also provided.

HCC2429 (lung cancer) = assay: as above; type: cell-based
Description: as §1

MDA-MB-468/hNotch = assay: as above; type: cell-based
Description: as §1

37622A1 NSCLC xenografts = assay: 37622A1 NSCLC patient-derived xenografts with anti-Notch ADCs; type: in vivo, nude (Nu/Nu) female mice; settings: for tumor volume (mm^3 ± SEM): 10 mg/kg Q4dx4
Description: (§2) Humanized anti-Notch antibodies, hu28 and hu75, and rat-human chimeric anti-Notch antibodies, ch28 and ch75, were conjugated to various linker-payload combinations and tested in 37622A1 non-small cell lung cancer (NSCLC), HCC2429 lung cancer, MDA-MB-468 breast cancer and N87 gastric cancer xenograft models. For each model described below the first dose was given on Day 0. The tumors were measured at least once a week and their volume was calculated with the formula: tumor volume (mm^3)=0.5×(tumor width^2)(tumor length). The mean tumor volumes (±S.E.M.) for each treatment group were calculated having a maximum of 10 animals and a minimum of 6 animals to be included.
The effects of anti-Notch ADCs were examined in immunodeficient mice on the in vivo growth of human tumor xenografts that were established from fragments of freshly resected 37622A1 NSCLC tumors obtained in accordance with appropriate consent procedures (Asterand). The 37622A1 NSCLC patient-derived xenografts were subcutaneously passaged in vivo as fragments from animal to animal in nude (Nu/Nu) female mice. When the tumors reached a volume of 150 to 300 mm^3, they were staged to ensure uniformity of the tumor size among various treatment groups. The 37622A1 NSCLC model was dosed intraveneously four times every four days (Q4dx4) with PBS vehicle, humanized anti-Notch ADCs, control huNeg-8.8 ADCs and cisplatin at the doses provided in Table 11.

HCC2429 lung xenografts = HCC2429 lung xenografts with anti-Notch ADCs; type: in vivo, nude (Nu/Nu) female mice; settings: humanized ADCs; Q4dx4, doses of Tables 12 and 13
Description: as §2
Similar in vivo experiments were performed with the HCC2429 lung cancer cell line as described above. […] When the tumors reached a volume of 200 to 400 mm^3, the tumors were staged to ensure uniformity of the tumor mass among various treatment groups. The HCC2429 lung model was dosed intraveneously Q4dx4 with PBS vehicle, humanized anti-Notch ADCs and control huNeg-8.8 ADCs at the doses provided in Tables 12 and 13.

[1] = first of two individual repeats
[2] = second of two individual repeats

B1: hu75-vc6780 (conjugate)
heavy: EVQLVESGGGLVQPGGSLRLSCAASGYAFTDYWMTWVRQAPGKGLEWVAEISPNSGGTNFNEKFKGRFTISVDNAKNSLYLQMNSLRAEDTAVYYCARGEIRYNWFAYWGQGTLVTVSSASTKGPSVFPLAPSSKSTSGGTAALGCLVKDYFPEPVTVSWNSGALTSGVHTFPAVLQSSGLYSLSSVVTVPSSSLGTQTYICNVNHKPSNTKVDKKV[human IgG1 Fc left out]
light: DIQMTQSPSSLSASVGDRVTITCKASQNVGNNIAWYQQKPGKAPKLLIYYASNRYTGVPSRFSGSGYGTDFTLTISSLQPEDFATYYCQRLYNSPFTFGGGTKVEIKRTVAAPSVFIFPPSDEQLKSGTASVVCLLNNFYPREAKVQWKVDNALQSGNSQESVTEQDSKDSTYSLSSTLTLSKADYEKHKVYACEVTHQGLSSPVTKSFNRGEC
Question: Which “IC50 (ng Ab/mL)” value (OVCAR3 (ovarian cancer)) does the source give for B1 here?
Answer: Its value is 254 ng Ab/mL.

Question: And the “IC50 (ng Ab/mL)” value (HCC2429 (lung cancer); [1])?
Answer: The value was 214 ng Ab/mL.

Question: What about the “IC50 (ng Ab/mL)” value (HCC2429 (lung cancer); [2]) of the same molecule?
Answer: Its value is 630 ng Ab/mL.

Question: What about the “IC50 (ng Ab/mL)” value (MDA-MB-468/hNotch; [1]) of the same molecule?
Answer: The value was 26 ng Ab/mL.

Question: And the “IC50 (ng Ab/mL)” value (MDA-MB-468/hNotch; [2])?
Answer: The value was 25 ng Ab/mL.

Question: What about the “tumor volume (mm^3 ± SEM)” value (37622A1 NSCLC xenografts; DAY 4) of the same molecule?
Answer: Its value is 205 ± 23 mm^3.

Question: And the “tumor volume (mm^3 ± SEM)” value (37622A1 NSCLC xenografts; DAY 7)?
Answer: The value was 195 ± 22 mm^3.

Question: And the “tumor volume (mm^3 ± SEM)” value (37622A1 NSCLC xenografts; DAY 11)?
Answer: The value was 147 ± 23 mm^3.

Question: What about the “tumor volume (mm^3 ± SEM)” value (37622A1 NSCLC xenografts; DAY 14) of the same molecule?
Answer: Its value is 118 ± 18 mm^3.

Question: And the “tumor volume (mm^3 ± SEM)” value (37622A1 NSCLC xenografts; DAY 18)?
Answer: The value was 93 ± 14 mm^3.

Question: And the “tumor volume (mm^3 ± SEM)” value (37622A1 NSCLC xenografts; DAY 21)?
Answer: The value was 98 ± 20 mm^3.

Question: What about the “tumor volume (mm^3 ± SEM)” value (37622A1 NSCLC xenografts; DAY 25) of the same molecule?
Answer: The value was 93 ± 24 mm^3.

Question: And the “tumor volume (mm^3 ± SEM)” value (37622A1 NSCLC xenografts; DAY 28)?
Answer: The value was 99 ± 26 mm^3.

Question: And the “tumor volume (mm^3 ± SEM)” value (37622A1 NSCLC xenografts; DAY 32)?
Answer: Its value is 165 ± 45 mm^3.

Question: What about the “tumor volume (mm^3 ± SEM)” value (37622A1 NSCLC xenografts; DAY 35) of the same molecule?
Answer: The value was 229 ± 59 mm^3.

Question: And the “tumor volume (mm^3 ± SEM)” value (37622A1 NSCLC xenografts; DAY 39)?
Answer: Its value is 294 ± 78 mm^3.

Question: And the “tumor volume (mm^3 ± SEM)” value (37622A1 NSCLC xenografts; DAY 42)?
Answer: The value was 318 ± 71 mm^3.

Question: What about the “tumor volume (mm^3 ± SEM)” value (37622A1 NSCLC xenografts; DAY 46) of the same molecule?
Answer: Its value is 412 ± 106 mm^3.

Question: And the “tumor volume (mm^3 ± SEM)” value (37622A1 NSCLC xenografts; DAY 49)?
Answer: Its value is 521 ± 132 mm^3.

Question: What about the “tumor volume (mm^3 ± SEM)” value (37622A1 NSCLC xenografts; DAY 53) of the same molecule?
Answer: The value was 629 ± 162 mm^3.

Question: And the “tumor volume (mm^3 ± SEM)” value (37622A1 NSCLC xenografts; DAY 56)?
Answer: Its value is 808 ± 196 mm^3.

Question: And the “tumor volume (mm^3 ± SEM)” value (37622A1 NSCLC xenografts; DAY 60)?
Answer: Its value is 917 ± 209 mm^3.

Question: What about the “tumor volume (mm^3 ± SEM)” value (37622A1 NSCLC xenografts; DAY 63) of the same molecule?
Answer: The value was 917 ± 147 mm^3.

Question: What about the “tumor volume (mm^3 ± SEM)” value (37622A1 NSCLC xenografts; DAY 67) of the same molecule?
Answer: The value was 1116 ± 173 mm^3.

Question: And the “tumor volume (mm^3 ± SEM)” value (37622A1 NSCLC xenografts; DAY 70)?
Answer: Its value is 1181 ± 203 mm^3.

Question: And the “tumor volume (mm^3 ± SEM)” value (37622A1 NSCLC xenografts; DAY −1)?
Answer: The value was 183 ± 17 mm^3.

Question: And the “effect on growth of 37622A1 NSCLC xenografts (in words)” value (37622A1 NSCLC xenografts; Q4dx4, doses of Table 11)?
Answer: Its value is “inhibited growth of 37622A1 NSCLC xenografts”.

Question: What about the “effect on growth of HCC2429 lung xenografts (in words)” value (HCC2429 lung xenografts) of the same molecule?
Answer: Its value is “inhibited growth of HCC2429 lung xenografts in a dose-dependent manner”.

From US8828401B2, “Cytotoxic peptides and antibody drug conjugates thereof” (Pfizer Inc., priority 2011, dated 2014)
